One assay has as its target CDK6/CyclinD3 (Homo sapiens, UniProt Q00534). Briefly: Assay for inhibition of CDK6/CyclinD3 (Caliper microfluidic kinase assay). The conditions noted are these: read-out: CDK6 IC50; CDK6/CyclinD3, 300 μM ATP. The class given is biochemical. On the procedure: (§1) The CDK6 enzyme assay for IC50 determination was performed as follows. Microfluidic kinase detection technology (Caliper) was used to monitor the phosphorylation of peptide substrate by CDK6/CyclinD3. The total reaction volume is 15 μL containing buffer A (100 mM HEPES (pH 7.5), 0.1% BSA, 0.01% Triton X-100, 1 mM DTT, 10 mM MgCl2, 10 μM Sodium Orthovanadate, 10 μM Beta-Glycerophosphate), 300 μM ATP, 2 nM CDK6/CyclinD3 (Carna, 04-107), 1 μM FL-34 (5-FAM-RRRFRPASPLRGPPK), and the test compound at appropriate dilutions in DMSO. All components were added to the 384-well plate (Corning, 4514), and incubated at Room Temperature for 3 hours. The reaction was terminated by addition of 15 μL Stop Buffer (180 mM HEPES (pH 7.5), 20 mM EDTA, Coating-3 reagent (PerkinElmer, 760050)). The plate was then loaded on Caliper EZ Reader (EZ Reader II, PerkinElmer, HD-4HYSG2772), and the reaction mixtures including substrate and product were sipped into the microfluidic chip for separation and detection. The IC50 values of the test compound were determined by fitting the inhibition curves by 4 parameter sigmoidal dose-response model using the Xlfit5/GraphPad Prism 5 software.
(§2) The IC50 values are indicated as “A,” “B,” “C,” and “D,” for values less than or equal to 10 nM; less than or equal to 100 nM; less than or equal to 1 μM; and greater than 1 μM, respectively.

The chains behind the UniProt entries cited, without tags or fusion partners.
UniProt Q00534, whole entry: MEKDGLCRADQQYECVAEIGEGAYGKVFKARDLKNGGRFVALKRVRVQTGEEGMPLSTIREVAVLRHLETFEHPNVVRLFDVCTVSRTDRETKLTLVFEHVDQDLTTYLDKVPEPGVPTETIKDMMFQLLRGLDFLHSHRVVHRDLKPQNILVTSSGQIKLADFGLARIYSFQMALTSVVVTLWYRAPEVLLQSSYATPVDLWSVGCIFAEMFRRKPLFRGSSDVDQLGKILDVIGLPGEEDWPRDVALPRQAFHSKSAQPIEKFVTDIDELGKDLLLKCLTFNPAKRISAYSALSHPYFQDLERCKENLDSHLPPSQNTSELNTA
UniProt P11802, whole entry: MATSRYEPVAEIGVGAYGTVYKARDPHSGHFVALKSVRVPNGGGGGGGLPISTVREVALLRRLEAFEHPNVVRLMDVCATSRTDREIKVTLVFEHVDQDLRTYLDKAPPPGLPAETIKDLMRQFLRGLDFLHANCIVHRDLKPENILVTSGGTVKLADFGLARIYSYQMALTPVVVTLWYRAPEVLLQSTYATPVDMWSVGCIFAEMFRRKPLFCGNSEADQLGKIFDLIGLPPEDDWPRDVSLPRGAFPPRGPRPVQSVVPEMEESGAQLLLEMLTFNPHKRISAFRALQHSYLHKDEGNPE
UniProt P30281, whole entry partner: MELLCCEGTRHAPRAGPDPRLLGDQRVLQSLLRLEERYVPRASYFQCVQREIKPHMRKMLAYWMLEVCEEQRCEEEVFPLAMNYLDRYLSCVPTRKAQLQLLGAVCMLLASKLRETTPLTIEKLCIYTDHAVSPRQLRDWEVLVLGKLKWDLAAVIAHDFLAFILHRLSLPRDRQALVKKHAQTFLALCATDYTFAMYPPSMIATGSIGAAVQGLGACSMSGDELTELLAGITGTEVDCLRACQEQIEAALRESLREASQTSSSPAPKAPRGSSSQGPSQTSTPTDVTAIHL
UniProt P24385, whole entry partner: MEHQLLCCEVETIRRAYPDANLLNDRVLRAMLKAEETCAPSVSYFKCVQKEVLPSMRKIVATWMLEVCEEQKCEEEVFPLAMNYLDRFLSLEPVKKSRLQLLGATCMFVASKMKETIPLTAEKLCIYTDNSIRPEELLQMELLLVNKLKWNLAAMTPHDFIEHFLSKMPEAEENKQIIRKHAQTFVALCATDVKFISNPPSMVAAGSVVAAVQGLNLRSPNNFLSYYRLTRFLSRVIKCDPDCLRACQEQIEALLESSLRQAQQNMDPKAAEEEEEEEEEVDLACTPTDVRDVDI

The next assay has as its target CDK4/CyclinD1 (Homo sapiens, UniProt P11802). The experiment in a line: Assay for inhibition of CDK4/CyclinD1 (Caliper microfluidic kinase assay). The class given is biochemical. To be noted: read-out: CDK4 IC50; CDK4/CyclinD1, 200 μM ATP. On the procedure: as §1, with “The CDK4” for “The CDK6”, “by CDK4/CyclinD1.” for “by CDK6/CyclinD3.”, “volume was” for “volume is”, “Beta-Glycerophosphate), 200” for “Beta-Glycerophosphate), 300”, “ATP, 1” for “ATP, 2”, “nM CDK4/CyclinD1 (Thermofisher, PR8064A),” for “nM CDK6/CyclinD3 (Carna, 04-107),”
as §2

The next assay has as its system T47D breast cancer cells. Briefly: Anti-proliferation assay in T47D cell (Cyquant, day 6). The conditions noted are these: read-out: T47D IC50. An excerpt:
T47D is a human breast cancer cell line commonly used in biomedical research involving the hormonal expression of cancer cells. T47D cells are distinct from other human breast cancer cells in that their progesterone receptors (PR) are not regulated by estradiol, a hormone that is abundant within the cells themselves. T47D cells have been employed in studies of the effects of progesterone on breast cancer and the corresponding transcriptional regulation caused by introduced drugs. The cells have been noted to be extremely resistant to estrogens and antiestrogens.
T47D breast cancer cells from American Type Culture Collection (ATCC, HTB-133) were plated at 3000 cells/well in 96-well plates, and were incubated in RPMI 1640 medium (Gibco, 31800105) with 10% Fetal Bovine Serum (FBS, Biowest, FB-1058) at 37° C., 5% CO2. After overnight incubation, baseline values were measured of the samples from one plate using Cyquant reagent (Invitrogen, C35011) following manufacturer's recommendations. Cells were incubated with the detection reagent for 1 hour at 37° C., and then the fluorescence was measured with excitation at 485 nm and emission at 535 nm using Spectra Max M5 (Molecular Devices, HD-4HYSG3196). […] On day 6 after compound addition, Cyquant reagent was added and the fluorescence was measured using Spectra Max M5. […]

The next assay concerns the target CDK2/CyclinE1 (Homo sapiens, UniProt P24941). The experiment in a line: Assay for inhibition of CDK2/CyclinE1 (Caliper microfluidic kinase assay). To be noted: read-out: CDK2 IC50; CDK2/CyclinE1, 100 μM ATP. The class given is biochemical. On the procedure:
The CDK2 enzyme assay for IC50 determination was performed as follows. Microfluidic kinase detection technology (Caliper) was used to monitor the phosphorylation of peptide substrate by CDK2/CyclinE1. The total reaction volume was 15 μL containing buffer A (100 mM HEPES (pH 7.5), 0.1% BSA, 0.01% Triton X-100, 1 mM DTT, 10 mM MgCl2, 10 μM Sodium Orthovanadate, 10 μM Beta-Glycerophosphate), 100 μM ATP, 5 nM CDK2/CyclinE1 (SignalChem, C29-18G), 5 μM FL-18 (5-FAM-QSPKKG-NH2), and the test compound at appropriate dilutions in DMSO. All components were added to the 384-well plate (Corning, 4514), and incubate at Room Temperature for 3 hours. The reaction was terminated by addition of 15 μL Stop Buffer (180 mM HEPES (pH 7.5), 20 mM EDTA, Coating-3 reagent (PerkinElmer, 760050)). The plate was loaded on Caliper EZ Reader (EZ Reader II, PerkinElmer, HD-4HYSG2772), and the reaction mixtures including substrate and product were sipped into the microfluidic chip for separation and detection. The IC50 values of the test compound were determined by fitting the inhibition curves by 4 parameter sigmoidal dose-response model using the Xlfit5/GraphPad Prism 5 software.
as §2

Assay [1] relates to phosphorylation of Retinoblastoma Protein (pRb Ser807/811 or Ser780) in T47D cells. The experiment in a line: Inhibition of phosphorylation of retinoblastoma protein (pRb) in T47D cell (ELISA). The assay is classed as cell-based, human. The conditions noted are these: read-out: Phospho T47D Ser807 IC50. On the procedure: T47D breast cancer cells from American Type Culture Collection (ATCC, HTB-133) were plated at 40,000 cells/well in 96-well plates, and were incubated in RPMI 1640 medium (Gibco, 31800105) with 10% Fetal Bovine Serum (FBS, Biowest, FB-1058). Cells were then allowed to adhere overnight at 37° C., 5% CO2. The following day, compounds were titrated in a 3-fold dilution scheme, and the highest compound concentration tested was […]. After 24 hours incubation with compounds, cells were lysed in ice-cold lysis buffer containing phosphatase inhibitor cocktail and 1 mM PMSF. Cell lysates (50 μL/well) were then transferred to ELISA plates (pRb Ser807/811 ELISA kit, Cell Signaling, 13152 or pRb Ser780 ELISA kit, Cell Signaling, 13016)). Plates were incubated overnight at 4° C., with constant slow speed shaking. After incubation, plates were washed following manufacturer's recommendations, and then 100 μL reconstituted detection antibody was added to each well and incubated for 1 hour at 37° C. After incubation, plates were washed, and then 100 μL reconstituted HRP-linked secondary antibody was added to each well and incubated for 30 mins at 37° C. […] Plates were read on the Envision plate reader (PerkinElmer, 2104-0010) using the 96-well […] mode. IC50 values were calculated using 4 parameter sigmoidal dose-response model of Xlfit5/GraphPad Prism 5 software. […]
A general note: An ELISA detects its analyte on a solid surface through an enzyme-linked reagent.

In the case of `CC(C)n1cnc2c(F)nc(-c3ccnc(Nc4ccc(N5CCC(C6CC(F)C6)CC5=O)cn4)n3)cc21` (stereo not shown), the IC50 (as a rule, the midpoint of a concentration-inhibition curve) on CDK6/CyclinD3 was 0.01 to 0.1 µM; at CDK4/CyclinD1, < 0.01 µM; in the assay on T47D breast cancer cells, < 0.1 µM; on CDK2/CyclinE1 it was 0.01 to 0.1 µM; in assay [1], < 0.1 µM.
For `CC(C)c1cnn2ccc(-c3nc(Nc4ccc(N5CCN(S(C)(=O)=O)CCC5=O)cn4)ncc3F)cc12`, the half-inhibitory concentration (IC50) was 0.01 to 0.1 µM on CDK6/CyclinD3; < 0.01 µM at CDK4/CyclinD1; < 0.1 µM in the assay with T47D breast cancer cells; 0.01 to 0.1 µM on CDK2/CyclinE1; < 0.1 µM in assay [1].

(Values after patent US20220296595A1, “CDK INHIBITORS” (QILU REGOR THERAPEUTICS INC., priority 2019, published 2022).)
